One assay deals with B-RAF^V600E kinase (Homo sapiens (Human), UniProt P15056, V600E). Briefly: LanthaScreen Eu kinase binding assay (B-RAF V600E). The following applies: tracer 178 competition, 5 hours.
The next assay addresses C-RAF Y340D/Y341D kinase (Homo sapiens (Human), UniProt P04049, Y340D/Y341D). Briefly: LanthaScreen Eu kinase binding assay (C-RAF). The following applies: tracer 178 competition, 5 hours. As to the method: LanthaScreen™ Eu kinase binding assay
To determine whether compounds bind to RAF kinases, they are tested in a competition binding assay. The Invitrogen LanthaScreen™ Eu binding assay involves the binding of an Alexa-Fluor® 647-labelled, ATP-competitive kinase tracer to the kinase of interest. A Europium-labelled anti-tag antibody also binds to the kinase of interest. Simultaneous binding of the tracer and the antibody brings them into close proximity and upon excitation at 340 nm, triggers fluorescence resonance energy transfer (FRET) between the Europium donor fluorophore on the antibody and the Alexa Fluor® 647 acceptor on the tracer. The dual emission signal produced can be measured at 665 and 615 nm.
Compounds at a concentration of 3 mM are serially diluted (e.g. 10 μl 90 μl of 100% dimethyl sulfoxide (DMSO)) seven times in 96-well plates for a total of 8 dilution points. Each DMSO dilution is further diluted 1:100 in kinase buffer (e.g. 5 μl into 495 μl kinase buffer) containing 50 mM HEPES pH 7.5, 10 mM MgCl2, 1 mM EGTA, 0.01% Brij-35.
Each well in a 96-well Optiplate™ (Perkin Elmer 6005569) contains 30 μl of final volume per sample, including 10 μl compound at 3× the desired concentration, providing 10 μM at the final maximum concentration, 10 μl of kinase/antibody mixture at 3× the desired concentration of RAF recombinant kinases and antibody providing 5 nM final concentration of B-RAF^V600E kinase (Invitrogen PV3849) and 3 nM final concentration of C-RAF Y340D/Y341D kinase (Invitrogen PV3805) and 2 nM final concentration of Eu-anti-GST antibody (PV5594), and 10 μl of 3× the desired concentration of kinase tracer 178 (Invitrogen PV5593) providing final concentrations of 20 nM tracer for B-RAF^V600E kinase and 6 nM tracer for C-RAF kinase. The plates are incubated for 5 hours at room temperature and read on an EnVision plate reader (Perkin Elmer).
All data are analysed using the GraphPad Prism software package. Inhibition of tracer binding to the kinase of interest is assessed by determination of IC50 value, which is defined as the concentration of compound which decreased the level of FRET signal measured at 665 nm by 50%.

Protein sequences, listed by entry. Tags and fused reporters are not part of them. Residues count along the entry.
UniProt P15056, whole entry V600E: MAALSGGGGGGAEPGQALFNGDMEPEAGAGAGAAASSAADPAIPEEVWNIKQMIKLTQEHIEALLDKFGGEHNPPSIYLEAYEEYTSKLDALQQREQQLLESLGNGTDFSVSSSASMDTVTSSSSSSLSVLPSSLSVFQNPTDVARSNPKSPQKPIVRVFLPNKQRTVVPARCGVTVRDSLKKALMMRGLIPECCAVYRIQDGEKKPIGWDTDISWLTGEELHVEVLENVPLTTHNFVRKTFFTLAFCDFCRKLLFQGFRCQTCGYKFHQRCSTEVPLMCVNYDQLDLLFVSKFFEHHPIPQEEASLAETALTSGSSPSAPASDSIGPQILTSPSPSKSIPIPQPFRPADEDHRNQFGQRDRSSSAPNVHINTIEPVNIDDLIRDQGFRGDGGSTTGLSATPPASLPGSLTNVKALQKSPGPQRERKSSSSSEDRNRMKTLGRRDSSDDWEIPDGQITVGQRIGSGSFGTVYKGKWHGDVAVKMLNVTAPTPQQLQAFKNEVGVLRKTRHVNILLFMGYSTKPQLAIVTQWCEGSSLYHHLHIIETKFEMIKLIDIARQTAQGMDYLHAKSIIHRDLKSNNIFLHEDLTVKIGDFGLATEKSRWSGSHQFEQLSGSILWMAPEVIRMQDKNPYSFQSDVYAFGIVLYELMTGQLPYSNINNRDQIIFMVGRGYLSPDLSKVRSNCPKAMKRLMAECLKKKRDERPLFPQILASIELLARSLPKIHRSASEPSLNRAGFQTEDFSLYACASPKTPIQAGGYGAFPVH
UniProt P04049, 306-648 Y340D/Y341D: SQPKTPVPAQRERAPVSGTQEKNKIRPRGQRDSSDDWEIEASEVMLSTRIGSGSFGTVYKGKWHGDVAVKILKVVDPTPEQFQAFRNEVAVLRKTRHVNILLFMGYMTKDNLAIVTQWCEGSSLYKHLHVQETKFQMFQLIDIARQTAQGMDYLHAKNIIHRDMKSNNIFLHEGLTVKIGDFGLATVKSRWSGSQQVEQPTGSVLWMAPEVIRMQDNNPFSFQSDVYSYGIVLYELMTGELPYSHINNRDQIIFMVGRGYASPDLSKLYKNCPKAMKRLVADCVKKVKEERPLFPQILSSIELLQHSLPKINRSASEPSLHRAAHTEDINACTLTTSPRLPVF

The mark [1] stands for this setting: IC50 category, read-out: BRAF^V600E binding affinity.
Where [2] appears, read: read-out: BRAF^V600E binding affinity IC50.
The mark [3] stands for this setting: IC50 category, read-out: CRAF binding affinity.
Setting [4] is: read-out: CRAF binding affinity IC50.

The source of these data is patent US10183939B2, “Fused bicyclic (hetero)aromatic compounds useful for the treatment of cancers” (Redx Pharma PLC, priority 2014, dated 2019).

Where two headings read alike, the source gives them in different places.

Regarding `O=C1CCc2c(Oc3ccc4c(c3)CC(c3nc(-c5ccccc5)c[nH]3)CO4)ccnc2N1` (stereo not drawn) [Example 3, 5-[3-(4-phenyl-1H-imidazol-2-yl)chroman-6-yl]oxy-3,4-dihydro-1H-1,8-naphthyridin-2-one], the IC50 at B-RAF^V600E kinase (setting [1]) was under 4 nM; at B-RAF^V600E kinase (setting [2]) it was 0.8 nM; on C-RAF Y340D/Y341D kinase (setting [3]), under 4 nM; on C-RAF Y340D/Y341D kinase (setting [4]), 0.6 nM.

Regarding `O=C1CCc2c(Oc3ccc4c(c3)CC(c3nc(-c5ccccc5)c[nH]3)CO4)ccnc2N1` (stereo not drawn) [Example 3B, 5-[3-(4-phenyl-1H-imidazol-2-yl)chroman-6-yl]oxy-3,4-dihydro-1H-1,8-naphthyridin-2-one], the IC50 was under 4 nM on B-RAF^V600E kinase (setting [1]), 1.4 nM at B-RAF^V600E kinase (setting [2]), under 4 nM at C-RAF Y340D/Y341D kinase (setting [3]) and 0.8 nM at C-RAF Y340D/Y341D kinase (setting [4]).

In the case of `O=C1CCc2c(Oc3ccc4c(c3)CC(c3nc(-c5ccccc5)c[nH]3)CO4)ccnc2N1` (single isomer, unassigned) [Example 3A, 5-[3-(4-phenyl-1H-imidazol-2-yl)chroman-6-yl]oxy-3,4-dihydro-1H-1,8-naphthyridin-2-one], the IC50 is under 4 nM at B-RAF^V600E kinase (setting [1]), 1.5 nM on B-RAF^V600E kinase (setting [2]), under 4 nM on C-RAF Y340D/Y341D kinase (setting [3]) and 1 nM at C-RAF Y340D/Y341D kinase (setting [4]).
